Membrane permeability of cyclic peptides

Source: CycPeptMPDB (Li et al. 2023), which took these values from Kelly et al. 2021, doi:10.1021/jacs.0c06115.

PAMPA is the parallel artificial membrane permeability assay, which has no cells and reads passive diffusion. Permeability is in 10^-6 cm/s, converted from the database's log10 values; higher is more permeable.

structure (SMILES),PAMPA (10^-6 cm/s)
CC(=O)N1CCC[C@H]1C(=O)N[C@@H]1C(=O)N[C@H](CC(C)C)C(=O)N(C)[C@H](CC(C)C)C(=O)N[C@H](CC(C)C)C(=O)N(C)[C@H](CC(C)C)C(=O)N(C)[C@H](C)C(=O)N[C@@H](CC(C)C)C(=O)N2CCC[C@@H]2C(=O)O[C@@H]1C,3.4
CC(=O)N1CCC[C@H]1C(=O)N(C)[C@H](CC(C)C)C(=O)N[C@@H]1C(=O)N(C)[C@@H](CC(C)C)C(=O)N[C@H](CC(C)C)C(=O)N(C)[C@H](CC(C)C)C(=O)N(C)[C@H](C)C(=O)N[C@H](CC(C)C)C(=O)N2CCC[C@@H]2C(=O)O[C@@H]1C,4.7
CC(=O)N[C@@H]1C(=O)N2CCC[C@H]2C(=O)N(C)[C@H](CC(C)C)C(=O)N[C@H](CC(C)C)C(=O)N[C@@H](CC(C)C)C(=O)N(C)[C@H](CC(C)C)C(=O)N(C)[C@@H](C)C(=O)N[C@@H](CC(C)C)C(=O)N2CCC[C@@H]2C(=O)O[C@@H]1C,0.91
CC(=O)N1CCC[C@@H]1C(=O)N(C)[C@@H](CC(C)C)C(=O)N[C@@H]1C(=O)N[C@@H](CC(C)C)C(=O)N[C@@H](CC(C)C)C(=O)N[C@H](CC(C)C)C(=O)N(C)[C@H](C)C(=O)N[C@H](CC(C)C)C(=O)N2CCC[C@H]2C(=O)O[C@@H]1C,0.26
CC(=O)N1CCC[C@H]1C(=O)N(C)[C@@H](CC(C)C)C(=O)N[C@@H]1C(=O)N[C@H](CC(C)C)C(=O)N(C)[C@@H](CC(C)C)C(=O)N(C)[C@H](CC(C)C)C(=O)N[C@H](C)C(=O)N[C@H](CC(C)C)C(=O)N2CCC[C@@H]2C(=O)O[C@@H]1C,0.89
CC(=O)N1CCC[C@H]1C(=O)N[C@@H]1C(=O)N[C@H](CC(C)C)C(=O)N(C)[C@H](CC(C)C)C(=O)N[C@@H](CC(C)C)C(=O)N[C@H](CC(C)C)C(=O)N(C)[C@@H](C)C(=O)N[C@@H](CC(C)C)C(=O)N2CCC[C@@H]2C(=O)O[C@@H]1C,12
CC(=O)N1CCC[C@@H]1C(=O)N(C)[C@H](CC(C)C)C(=O)N[C@@H]1C(=O)N(C)[C@H](CC(C)C)C(=O)N(C)[C@@H](CC(C)C)C(=O)N(C)[C@@H](CC(C)C)C(=O)N(C)[C@H](C)C(=O)N[C@H](CC(C)C)C(=O)N2CCC[C@@H]2C(=O)O[C@@H]1C,1.7
CC(=O)N[C@@H]1C(=O)N2CCC[C@H]2C(=O)N(C)[C@H](CC(C)C)C(=O)N[C@H](CC(C)C)C(=O)N[C@H](CC(C)C)C(=O)N[C@H](CC(C)C)C(=O)N[C@@H](C)C(=O)N[C@@H](CC(C)C)C(=O)N2CCC[C@@H]2C(=O)O[C@@H]1C,0.044
CC(=O)N1CCC[C@H]1C(=O)N(C)[C@@H](CC(C)C)C(=O)N[C@@H]1C(=O)N[C@H](CC(C)C)C(=O)N[C@H](CC(C)C)C(=O)N(C)[C@H](CC(C)C)C(=O)N(C)[C@@H](C)C(=O)N[C@H](CC(C)C)C(=O)N2CCC[C@H]2C(=O)O[C@@H]1C,3
CC(=O)N1CCC[C@H]1C(=O)N(C)[C@@H](CC(C)C)C(=O)N[C@@H]1C(=O)N[C@@H](CC(C)C)C(=O)N[C@@H](CC(C)C)C(=O)N[C@@H](CC(C)C)C(=O)N(C)[C@H](C)C(=O)N[C@@H](CC(C)C)C(=O)N2CCC[C@H]2C(=O)O[C@@H]1C,0.62
CC(=O)N1CCC[C@H]1C(=O)N(C)[C@@H](CC(C)C)C(=O)N[C@@H]1C(=O)N[C@H](CC(C)C)C(=O)N[C@H](CC(C)C)C(=O)N[C@H](CC(C)C)C(=O)N(C)[C@@H](C)C(=O)N[C@@H](CC(C)C)C(=O)N2CCC[C@H]2C(=O)O[C@@H]1C,0.87
CC(=O)N1CCC[C@@H]1C(=O)N(C)[C@H](CC(C)C)C(=O)N[C@@H]1C(=O)N[C@@H](CC(C)C)C(=O)N(C)[C@@H](CC(C)C)C(=O)N(C)[C@H](CC(C)C)C(=O)N(C)[C@@H](C)C(=O)N[C@H](CC(C)C)C(=O)N2CCC[C@H]2C(=O)O[C@@H]1C,0.31
CC(=O)N[C@@H]1C(=O)N2CCC[C@H]2C(=O)N(C)[C@H](CC(C)C)C(=O)N[C@H](CC(C)C)C(=O)N[C@@H](CC(C)C)C(=O)N(C)[C@@H](CC(C)C)C(=O)N(C)[C@@H](C)C(=O)N[C@@H](CC(C)C)C(=O)N2CCC[C@@H]2C(=O)O[C@@H]1C,0.29
CC(=O)N1CCC[C@@H]1C(=O)N(C)[C@@H](CC(C)C)C(=O)N[C@@H]1C(=O)N(C)[C@H](CC(C)C)C(=O)N(C)[C@@H](CC(C)C)C(=O)N(C)[C@H](CC(C)C)C(=O)N(C)[C@@H](C)C(=O)N[C@H](CC(C)C)C(=O)N2CCC[C@H]2C(=O)O[C@@H]1C,4.5

The last 2 entries again:

structure (SMILES),PAMPA (10^-6 cm/s)
CC(=O)N[C@@H]1C(=O)N2CCC[C@H]2C(=O)N(C)[C@H](CC(C)C)C(=O)N[C@H](CC(C)C)C(=O)N[C@@H](CC(C)C)C(=O)N(C)[C@@H](CC(C)C)C(=O)N(C)[C@@H](C)C(=O)N[C@@H](CC(C)C)C(=O)N2CCC[C@@H]2C(=O)O[C@@H]1C,0.29
CC(=O)N1CCC[C@@H]1C(=O)N(C)[C@@H](CC(C)C)C(=O)N[C@@H]1C(=O)N(C)[C@H](CC(C)C)C(=O)N(C)[C@@H](CC(C)C)C(=O)N(C)[C@H](CC(C)C)C(=O)N(C)[C@@H](C)C(=O)N[C@H](CC(C)C)C(=O)N2CCC[C@H]2C(=O)O[C@@H]1C,4.5

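The data file gives no further conditions (lipid, pH, time, direction or concentration), and values from different papers need not be comparable. Other peptides of the study may be missing here. Entries at the database's floor value (log10 P of -10) are not listed.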